# Measured values taken from patent US10689622B2, “Culture medium for proliferating stem cell, which contains sulfated compound” (AJINOMOTO CO., INC., priority 2012, dated 2020).
# Test: Measurement of content level of sulfur in test compound (ICP)
# Format: physicochemical
# Conditions: ICPS-8100, evaluation samples containing 0.01 wt % test compound
# Excerpt: The content level of sulfur in the sulfated saccharide is generally not less than 5 wt %, preferably not less than 10 wt %, more preferably not less than 15 wt %, and the upper limit is generally not more than 40 wt %, preferably not more than 35 wt %, more preferably not more than 30 wt %. […] Here, the content level of sulfur is a proportion in wt % of sulfur derived only from the sulfate group in sulfated saccharides, which can be measured by a method known in the field (e.g., rhodizonate method, elemental analysis or luminescent spectral analysis).
# The content level of sulfur in the sulfated polymer is generally not less than 5 wt %, preferably not less than 10 wt %, more preferably not less than 15 wt %, and the upper limit is generally not more than 40 wt %. […] Here, the content level of sulfur is a proportion in wt % of sulfur in the sulfated polymer, which can be measured by a method known in the field such as rhodizonate method, elemental analysis or luminescent spectral analysis).
# The relationship between the content level of sulfur in a test compound (sulfur content) and the cell proliferation promoting effect was examined. The sulfur content was measured using ICPS-8100 manufactured by SHIMADZU CORPORATION and analyzed using ICPS-8000 series Ver1.03. As the reference standard of sulfur, the standard for ICP-MS manufactured by Accu Standard was used. […]
substance,measurement,value
tartrate-SO3Na,sulfur content Found (inorganic analysis),15 wt %
